Values of other authors, collected in US6569404B1, “Phase shift colloids as ultrasound contrast agents” (priority 1993, dated 2003).
Like-named read-outs stand apart in the source and are kept apart here.

Conditions: cited from earlier work
[1] = boiling point under standard pressure conditions, chemical list arranged by total atoms
[2] = Chemical List of low boiling liquids, Example 45

Methyldifluoramine
Boiling Point [1]: −16 degrees Celcius

dimethyl-phosphine
Boiling Point [1]: 20 degrees Celcius

Methane, chloro dinitro
Boiling Point [2]: 34.0 degrees Celcius

FC(F)(F)OOC(F)(F)F
Boiling Point [2]: −32.0 degrees Celcius
